From PubChem BioAssay (NCI)
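In this assay, cells in 96-well plates receive the compound at five concentrations for 48 hours. Endpoints are linearly interpolated between the surrounding concentrations. The concentration for full growth arrest is given as TGI.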

Key:
Test in all cases: NCI anticancer screen, dose series, 48 h
[1] = system: A498 renal
[2] = system: A549 NSCLC
[3] = system: ACHN renal
[4] = system: CAKI-1 renal
[5] = system: COLO 205 colon
[6] = system: DLD-1 colon
[7] = system: DMS 114 small cell lung
[8] = system: EKVX NSCLC
[9] = system: HCC-2998 colon
[10] = system: HCT-116 colon
[11] = system: HCT-15 colon
[12] = system: HOP-62 NSCLC
[13] = system: HOP-92 NSCLC
[14] = system: HT29 colon
[15] = system: IGROV1 ovarian
[16] = system: KM12 colon
[17] = system: KM20L2 colon
[18] = system: LOX IMVI melanoma
[19] = system: M19-MEL melanoma
[20] = system: MOLT-4 leukemia
[21] = system: NCI-H226 lung
[22] = system: NCI-H23 lung
[23] = system: NCI-H322M lung
[24] = system: NCI-H460 lung
[25] = system: OVCAR-4 ovarian
[26] = system: OVCAR-5 ovarian
[27] = system: OVCAR-8 ovarian
[28] = system: RPMI-8226 leukemia
[29] = system: RXF 393 renal
[30] = system: SF-268 CNS
[31] = system: SF-295 CNS
[32] = system: SF-539 CNS
[33] = system: SK-MEL-28 melanoma
[34] = system: SK-MEL-5 melanoma
[35] = system: SK-OV-3 ovarian
[36] = system: SN12C renal
[37] = system: SNB-19 CNS
[38] = system: SNB-75 CNS
[39] = system: SNB-78 CNS
[40] = system: SR leukemia
[41] = system: SW-620 colon
[42] = system: TK-10 renal
[43] = system: U251 CNS
[44] = system: UACC-257 melanoma
[45] = system: UACC-62 melanoma
[46] = system: UO-31 renal
[47] = system: XF 498 CNS

Measured: TGI

COc1ccc2c3c1O[C@@]1(C)[C@]4(OC)C=CC5(C[C@@H]4C(C)(C)O)C(C2)N(C)CC[C@@]351
> 100 µM: [1] | [2] | [3] | [4] | [5] | [6] | [7] | [8] | [9] | [10] | [11] | [12] | [13] | [14] | [15] | [16] | [17] | [18] | [19] | [20] | [21] | [22] | [23] | [24] | [25] | [26] | [27] | [28] | [29] | [30] | [31] | [32] | [33] | [34] | [35] | [36] | [37] | [38] | [39] | [40] | [41] | [42] | [43] | [44] | [45] | [46] | [47]
